# Measurements taken from patent US6077519A, “Methods for isolation and use of T cell epitopes eluted from viable cells in vaccines for treating cancer patients” (University of Pittsburgh, priority 1997, dated 2000).
# How the values were obtained:
# Mel 624 [1] = assay: induction of anti-melanoma CTL from melanoma patient PBMC by peptide-pulsed autologous DC, lysis of Mel 624; format: cell-based, human
# From the text: Heparinized peripheral blood was obtained by venipuncture from 15 HLA-A2^+ normal donors and 10 HLA-A2^+ donors with AJCC Stage III or IV melanoma treated at the University of Pittsburgh Cancer Institute/University of Pittsburgh School of Medicine. Peripheral blood mononuclear cells ("PBMC") were obtained after density centrifugation on Ficoll-Hypaque gradients per the manufacturer's protocol (LSM, Organon-Teknika, Durham, N.C.). After 4-5 washes in Hank's Buffered Saline (HBSS from GIBCO-BRL, Gaithersburg, Md.), 10^8 cells/10 ml of serum-free AIM-V medium (GIBCO-BRL) were placed in T75 flasks (COSTAR, Cambridge, Mass.) and incubated for 1-1.5 hours at 37° C., 5% CO2 to allow for cell attachment. Non-adherent cells were frozen in liquid nitrogen in 90% fetal bovine serum/10% DMSO and were retained as T cell enriched responder populations. Plastic adherent cells were cultured for 5-7 days in AIM-V medium supplemented with 1000 U rIL-4/ml+1000 U rGM-CSF/ml at 37° C., 5% CO2 and served as the source of autologous dendritic cells. No medium was added or removed during this culture period. Non-adherent cells were harvested and DCs were purified further by discontinuous density centrifugation on a layer of Nycoprep 1.064 (GIBCO-BRL):LSM (9:1), 800 g×15 minutes. Gradient interface cells were harvested, washed with HBSS, and used in phenotypic and functional assays, as outlined below. Cells generated in this way were determined to be greater than 90% DC based on morphology and the expression of a CD1a+, CD1b+, CD1c+, CD3-, CD14-, CD16-, CD20-, CD40+, CD80+, CD83+, CD86+, MHC class II+phenotype assessed by flow cytometry. […]
# Plastic non-adherent DC (1-2×10^6) were harvested from IL-4+GM-CSF cultures on days 7, 14, 21, and 28, and washed twice with HBSS. […] Each week a portion of the cultured T cells were harvested and evaluated for their ability to mediate cytolysis of the allogeneic HLA-A2+Mel 624 target cell in 4 h ^51 Chromium (^51 Cr)-release assays. […]
# Mel 624 [2] = assay: induction of anti-melanoma CTL from normal donor PBMC by peptide-pulsed autologous DC, lysis of Mel 624; format: cell-based, human
# [3] = lysis of Mel 624 >20% at E:T 10:1, >80% inhibited by BB7.2
sequence,measurement,setting,value
AAGIGILTV [MART-1 27-35],Patient PBL Response (responders/patients),Mel 624 [1]; [3],9/10
same,"Peak week of CTL reactivity, Patient PBL",Mel 624 [1]; melanoma patients,3-4 wk
same,immunodominance by kinetics and magnitude of response,Mel 624 [1]; melanoma patients,immunodominant epitopes
same,Normal PBL Response (responders/donors),Mel 624 [2]; [3],11/12
same,"Peak week of CTL reactivity, Normal PBL",Mel 624 [2]; normal donors,3-4 wk
